# Apparent affinities of Ab-95 variants for a coronavirus HR2 peptide

Values reported by Engelhart et al. 2022, doi:10.1038/s41597-022-01779-4 (FLAb copy).

Target peptide (SARS-CoV-2 spike, HR2 region): PDVDLGDISGINAS

Parent scFv Ab-95: VH joined to VL by three GGGGS repeats. Changes lie in the light chain CDRs alone.
VH: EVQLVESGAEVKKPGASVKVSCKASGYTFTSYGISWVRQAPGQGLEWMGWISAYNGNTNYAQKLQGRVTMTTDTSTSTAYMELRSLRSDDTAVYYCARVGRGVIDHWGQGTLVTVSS
VL: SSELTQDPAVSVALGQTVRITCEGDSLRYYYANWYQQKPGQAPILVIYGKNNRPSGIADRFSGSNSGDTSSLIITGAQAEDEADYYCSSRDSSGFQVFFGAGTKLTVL

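The starting antibody came from a phage panning campaign against this peptide. AAYL52 was designed without a model: most single CDR substitutions and a random sample of double and triple ones. The assay is AlphaSeq: two haploid yeast populations carry antibody and antigen on their surface. Mating (16 h, 30 °C) was followed by selection of diploids and sequencing of their barcodes. A regression on co-assayed BCL2-family reference pairs converts the normalised counts of each replicate to an apparent Kd. Mating was done three times.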

The whole VL of each variant is written out.
Every variant below is changed at S88 of the VL (sequential numbering).
Values are apparent Kd, the geometric mean of the replicates that gave a signal; lower means stronger binding.
As a blank, each scFv also met three strains without target: over library AAYL52, 28% of these pairings were detected, typically at 8.2 µM and seldom below 800 nM. The control count says in how many pairings with the empty strains this scFv gave a signal.

- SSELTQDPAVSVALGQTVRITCMGDQLRYYYANWYQQKPGQAPILVIYGKNNRPSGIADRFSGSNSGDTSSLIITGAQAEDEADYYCPSRDSSGFQVFFGAGTKLTVL: 3.4 µM (2 of 3 replicates; controls 6 of 9)
- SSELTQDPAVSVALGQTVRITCEGDQQRYYYANWYQQKPGQAPILVIYGKNNRPSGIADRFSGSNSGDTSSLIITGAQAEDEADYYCESRDSSGFQVFFGAGTKLTVL: 530 nM (3 of 3 replicates; controls 0 of 9)
- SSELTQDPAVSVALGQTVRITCTGDSQRYYYANWYQQKPGQAPILVIYGKNNRPSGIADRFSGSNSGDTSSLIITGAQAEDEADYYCWSRDSSGFQVFFGAGTKLTVL: 2.9 µM (3 of 3 replicates; controls 4 of 9)
- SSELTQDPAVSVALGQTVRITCEEDSLRYYYDNWYQQKPGQAPILVIYGKNNRPSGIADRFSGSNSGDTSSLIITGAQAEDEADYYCYSRDSSGFQVFFGAGTKLTVL: 38 µM (2 of 3 replicates; controls 3 of 9)
- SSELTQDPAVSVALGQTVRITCEEYSLRYYYANWYQQKPGQAPILVIYGKNNRPSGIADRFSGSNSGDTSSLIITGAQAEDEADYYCRSRDSSGFQVFFGAGTKLTVL: 6.8 µM (2 of 3 replicates; controls 2 of 9)
- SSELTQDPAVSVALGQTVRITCEGDSLRYYYANWYQQKPGQAPILVIYGKNNRPSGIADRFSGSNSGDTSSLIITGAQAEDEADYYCHSRASSGFCVFFGAGTKLTVL: 100 nM (3 of 3 replicates; controls 2 of 9)
- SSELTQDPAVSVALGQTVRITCEGDSLRYYYFAWYQQKPGQAPILVIYGKNNRPSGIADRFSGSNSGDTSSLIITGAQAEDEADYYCASRDSSGFQVFFGAGTKLTVL: 77 µM (3 of 3 replicates; controls 2 of 9)
- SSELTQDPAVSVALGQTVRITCEGDSRRYYYANWYQQKPGQAPILVIYGKNNRPSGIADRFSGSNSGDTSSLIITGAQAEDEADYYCISRDSSGFQVFFGAGTKLTVL: 22 µM (2 of 3 replicates; controls 5 of 9)
- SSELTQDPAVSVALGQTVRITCEGDSLRYYYANWYQQKPGQAPILVIYGKFNRPSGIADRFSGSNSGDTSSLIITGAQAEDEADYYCCSRDSSGFQPFFGAGTKLTVL: 6.9 µM (1 of 3 replicates; controls 0 of 9)
- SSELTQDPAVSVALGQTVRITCEGDSLRYYYANWYQQKPGQAPILVIYGKNNLPSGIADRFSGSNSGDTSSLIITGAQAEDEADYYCGSRDPSGFQVFFGAGTKLTVL: 7.5 µM (3 of 3 replicates; controls 4 of 9)
- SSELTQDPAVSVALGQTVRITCEGDSLRYYYANWYQQKPGQAPILVIYWKNNRASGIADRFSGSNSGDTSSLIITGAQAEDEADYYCISRDSSGFQVFFGAGTKLTVL: 1.2 µM (3 of 3 replicates; controls 3 of 9)
- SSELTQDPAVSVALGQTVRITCEGDSLRYYYANWYQQKPGQAPILVIYGKNNRPGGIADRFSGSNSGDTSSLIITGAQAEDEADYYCISRDSDGFQVFFGAGTKLTVL: 4.5 µM (2 of 3 replicates; controls 3 of 9)
- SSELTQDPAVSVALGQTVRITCEGDSIRYIYANWYQQKPGQAPILVIYGKNNRPSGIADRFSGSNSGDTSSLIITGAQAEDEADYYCWSRDSSGFQVFFGAGTKLTVL: 8.1 µM (1 of 3 replicates; controls 2 of 9)
- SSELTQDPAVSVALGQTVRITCEGDSLRYYYANWYQQKPGQAPILVIYGKNNRHWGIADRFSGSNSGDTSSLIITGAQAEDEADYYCRSRDSSGFQVFFGAGTKLTVL: 9.3 µM (2 of 3 replicates; controls 3 of 9)
- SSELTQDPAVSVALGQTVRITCEGDSLRYYYANWYQQKPGQAPILVIYGKNNRPSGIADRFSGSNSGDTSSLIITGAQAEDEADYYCNSRDESVFQVFFGAGTKLTVL: 1.0 µM (3 of 3 replicates; controls 4 of 9)
- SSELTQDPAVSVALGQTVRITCEGDSLRYCYANWYQQKPGQAPILVIYGKNNRPSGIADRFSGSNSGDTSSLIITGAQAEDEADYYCCRRDSSGFQVFFGAGTKLTVL: 91 nM (3 of 3 replicates; controls 4 of 9)
- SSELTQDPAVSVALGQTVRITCEGDMIRYYYANWYQQKPGQAPILVIYGKNNRPSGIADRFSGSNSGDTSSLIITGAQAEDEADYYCASRDSSGFQVFFGAGTKLTVL: 22 µM (3 of 3 replicates; controls 3 of 9)
- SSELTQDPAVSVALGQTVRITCEGDIQRYYYANWYQQKPGQAPILVIYGKNNRPSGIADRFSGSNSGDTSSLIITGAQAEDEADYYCQSRDSSGFQVFFGAGTKLTVL: 12 µM (3 of 3 replicates; controls 1 of 9)
- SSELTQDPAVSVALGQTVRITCAGDSLRYYHANWYQQKPGQAPILVIYGKNNRPSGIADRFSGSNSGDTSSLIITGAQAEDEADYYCGSRDSSGFQVFFGAGTKLTVL: 41 nM (3 of 3 replicates; controls 3 of 9)

Repeated from above, the 2 best binders with a signal in all replicates:

- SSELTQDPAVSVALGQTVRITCAGDSLRYYHANWYQQKPGQAPILVIYGKNNRPSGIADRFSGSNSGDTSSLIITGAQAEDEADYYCGSRDSSGFQVFFGAGTKLTVL -> 41 nM (3 of 3 replicates; controls 3 of 9)
- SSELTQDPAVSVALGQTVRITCEGDSLRYCYANWYQQKPGQAPILVIYGKNNRPSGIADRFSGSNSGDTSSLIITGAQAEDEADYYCCRRDSSGFQVFFGAGTKLTVL -> 91 nM (3 of 3 replicates; controls 4 of 9)